Experimental findings from US7763582B2, “Localized insulin delivery for bone healing” (University of Medicine and Dentistry Of New Jersey, priority 2006, dated 2010) are described below.

For the data set the following is noted: non-diabetic BB Wistar, days 1 and 3 post-surgery, versus non-diabetic saline group; FIG. 1.

For the substance ultralente insulin, the blood glucose levels entry is listed as “comparable”.
